The values below come from ChEMBL document CHEMBL6115028, “An Amazing 30-Year Journey around the DABO Family: A Medicinal Chemistry Lesson on a Versatile Class of Non-nucleoside HIV-1 Reverse Transcriptase Inhibitors” (J Med Chem, 2025).

A short description of the assay: Inhibition of wild type HIV-1 LAI reverse transcriptase.

Each structure is given as a SMILES string.

For orientation: IC50 means the concentration at which inhibition is half-maximal.

`Cc1cc(C#N)cc(C)c1Oc1nc(Nc2ccc(C#N)cc2)nc(N)c1Br` [ETRAVIRINE] gave a half-maximal inhibitory concentration (IC50) of 1.4 nM.
